# AlphaSeq binding of Ab-14 heavy chain variants to a spike HR2 peptide

From the AlphaSeq antibody data of Li et al. 2023 (doi:10.1038/s41467-023-39022-2), copy in the FLAb collection.

The target is the same throughout: PDVDLGDISGINAS, from the HR2 region of SARS-CoV-2 spike.

The variants keep the light chain, the linker and the frameworks of Ab-14 (scFv order VH, a 15-residue (Gly4Ser)3 linker, VL).
VH: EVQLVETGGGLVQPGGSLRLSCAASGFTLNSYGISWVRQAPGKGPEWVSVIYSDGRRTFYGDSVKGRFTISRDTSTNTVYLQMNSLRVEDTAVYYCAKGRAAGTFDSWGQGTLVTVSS
VL: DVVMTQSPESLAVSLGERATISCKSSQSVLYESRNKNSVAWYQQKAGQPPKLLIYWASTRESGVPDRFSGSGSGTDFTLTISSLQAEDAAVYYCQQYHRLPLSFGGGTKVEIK

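Phage display of a naive human antibody library on the peptide gave the parent. These sequences belong to a second round, designed from the earlier measurements on random variants of the parent. Several design methods are mixed in this list. AlphaSeq pools MATa yeast showing the antibodies with MATalpha yeast showing the peptide. The frequency of each diploid, read from paired DNA barcodes, reflects how well the two displayed proteins bind. Read counts were normalised to the haploid input and turned into Kd by a linear fit to BCL2-family pairs of known affinity, for each replicate. Mating was done six times.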

The parent's heavy chain CDRs are GFTLNSYGIS, VIYSDGRRTFYGDSVK, GRAAGTFDS; each variant's own CDRs replace them letter for letter. Variants here have at most six changes. Values are log10 of the apparent Kd in nM; lower means stronger binding. The mean shown is taken over the replicates in which the pair was detected. Where no diploid with the target was found in that replicate, the entry reads "nd": below detection, most likely a poor binder, though not proof of it. Entries are sorted by rising average, undetected variants last. Three control strains display no target. For all heavy chain designs, 1% of the pairings with them gave a signal, with a median of 2.08 and one signal in twenty below 0.84, so weak values seen in few replicates may be background.

Variant GFDLNEYGIS / VIYADGRRTFYADSVK / GRVAGTFDQ gave -0.71, -0.87, -0.97, -0.82, -0.42, -0.67 (mean -0.74). For GFSLNSYGIS / VIYSDGRRTFYVDSVK / GQAAGTFDA, the assay gave -0.31, -0.25, -0.29, 0.49, -0.33, 0.32 (mean -0.06). Variant GFPLNSYGIS / VIYSDGRRTFYDDSVK / GQTAGTFDS gave -0.07, -0.14, -0.19, 0.08, 0.05, -0.04 (mean -0.05). Variant GFTLESYGIS / VIYSDGRRTFYHDSVK / GREAGTFDT gave 1.15, 0.16, -0.15, -0.28, -0.15, -0.55 (mean 0.03). Variant GFTLNSYGIS / VIYSDGMRTFYSDSVK / GITAGTFDS gave 0.60, 0.23, 0.04, -0.06, 0.21, 0.32 (mean 0.22). Variant GFTLNSYGIS / VIYSDGRRTFYIDSVK / GGEAGTFDT gave 0.58, 0.21, -0.03, 0.28, 0.16, 0.27 (mean 0.25). With GFSLNSYGIS / VIYSDGRRTFYGDSVK / GWAAGTFDT the result was 0.81, 0.47, -0.07, 0.42, 0.64, 1.19 (mean 0.58). With GFELNNYGIS / VIYSDGRRTFYGDSVK / GKAAGTFDS the result was 0.70, 0.64, 1.22, 0.74, 0.15, 0.46 (mean 0.65). Variant GFELNEYGIS / VIYSDGRRTFYGDSVK / GKEAGTFDS gave 0.55, 1.02, 0.55, 1.19, 0.57, 0.47 (mean 0.73).

Variant KFTLNSYGIS / VIYSDGRRTFYSDSVK / GQLAGTFDS showed 1.07, 0.80, 0.60, 0.31, 0.83, 1.22 (mean 0.81). For GFTVNEYGIS / VIYSDGRRTFYGDDVK / GRAAGTFDS, the assay gave 1.57, 0.93, 0.66, nd, 0.44, 0.55 (mean 0.83). For GFELNSYGIS / VIYSDGRRTFYMDSVK / GQTAGTFDS, the assay gave 0.78, 1.41, 0.96, 0.50, 2.32, 1.14 (mean 1.18). Variant GFNLNSYGIS / VIYSDGRRTFYDDSVK / GMLAGTFDS showed 1.63, 0.94, 0.75, 0.87, 1.41, 2.11 (mean 1.29). Variant GFSLNSYGIS / VIYSDGRRTFYLDSVK / GRAAGTFDS showed nd, 1.69, 0.92, 1.91, nd, nd (mean 1.51). Variant KFDLNSYGIS / VIYSDGRRTFYDDSVK / GKAAGTFDS showed nd, 1.50, 1.60, 1.74, 1.50, 1.51 (mean 1.57). Variant GFSLNSYGIS / VIYSDGRRTFYADMVK / GEAAGTFDK gave 1.76, 1.38, nd, nd, nd, 2.12 (mean 1.75). For GFDLNSYGIS / VIYSDGRRTFYIDSVK / GNAAGTFDT, the assay gave nd, 2.00, 1.77, nd, 2.31, 2.19 (mean 2.07). Variant GFTLDLYGIS / VIYSDGRRTFYGDSVK / GRAAGTFDM showed 1.38, 2.81, 1.82, 2.18, 2.88, 2.79 (mean 2.31).

For GFTLNDCGIS / VIYSDGDRTQYIDSVK / GRAAGTFDS, the assay gave 2.40, nd, nd, nd, nd, nd. Variant GFTLNSYGIS / VIYSDGKRTMYGDSVK / GRAAGFFDS showed nd, nd, nd, nd, 3.88, nd. For GFWLNSYGGS / VIYSDGRRTFYGDSVK / GRAAGTFDD, the assay gave nd, nd, nd, nd, nd, nd. For GFSVNSYGIS / VIYSDGRRTFYTDSVK / THAAGTFDS, the assay gave nd, nd, nd, nd, nd, nd. For GFTLNSYGIS / VIYSDGRRTFYGDSVK / GRTAGTFDV, the assay gave nd, nd, nd, nd, nd, nd. Variant GFTLNQYGID / VDYSDGRRTFYSDSVK / GRAAGFFDS gave nd, nd, nd, nd, nd, nd. For GQTLSSYGIS / VIYSDGRRTFYHGSVK / GRAAGDFDS, the assay gave nd, nd, nd, nd, nd, nd. Variant GFRLNEYGIS / VIYSDGRRTFYGDSVK / GRAAVTFDQ showed nd, nd, nd, nd, nd, nd. Variant GFTLNSYGIS / VIYSDGRRTFYDDSVK / YQLAGTFDS gave nd, nd, nd, nd, nd, nd.

Variant GFTLNSYGIS / VIYSDGRRTFYGDSVK / GREAGFFDS showed nd, nd, nd, nd, nd, nd. Variant GFDLNSYGIS / VIYSDGRRTFYADRVK / GKAAGTFDS showed nd, nd, nd, nd, nd, nd. Variant GFTLNKYGIS / VIYSDGRRTFYGDSVK / GRAVGTFKS gave nd, nd, nd, nd, nd, nd. Variant GFTLNSYGIS / VIYRDGRRTFYGDSVK / GRPAGTFSS showed nd, nd, nd, nd, nd, nd. With GFTLNQYGIS / VIYSDGRRTFKSDSVK / GRAMGFFDS the result was nd, nd, nd, nd, nd, nd.

For reference, 2 entries of the list once more:

CDR-H1,CDR-H2,CDR-H3,"log10 Kd, replicates","log10 Kd (nM), mean"
GQTLSSYGIS,VIYSDGRRTFYHGSVK,GRAAGDFDS,"nd, nd, nd, nd, nd, nd",nd
GFTLNSYGIS,VIYSDGRRTFYDDSVK,YQLAGTFDS,"nd, nd, nd, nd, nd, nd",nd

The parent sequence was in this pool as ten entries: three were never detected, three once, and four in most replicates, with averages from 0.34 to 2.37. The range of this assay differs from that of the first round, and the authors advise against merging the two. The authors averaged sequences with at least three values out of six and counted those with two or fewer as poor binders.